Tests used:
Assay in all cases: SPR
[1] = target: TGF-β1:TβRII complex (biotinylated TGF-β1 surface with 4 μM TβRII in the buffer)
[2] = target: TGF-β3:TβRII complex (biotinylated TGF-β3 surface with 4 μM TβRII in the buffer)
[3] = target: TGF-β131:TβRII complex (biotinylated TGF-β131 surface with 4 μM TβRII in the buffer)

Kd [1]: 240 nM | kon [1]: 33000 M⁻¹ s⁻¹ | Kd [2]: 34 nM | koff [2]: 0.0012 s⁻¹ | kon [2]: 35000 M⁻¹ s⁻¹ | Kd [3]: 51 nM | koff [3]: 0.0026 s⁻¹ | kon [3]: 52000 M⁻¹ s⁻¹
Substance: TβRI-ED: residues 7–91 of the extracellular domain of the TGF-β type I receptor (domain or fragment)
